# Experimental data taken from IntAct's records for PubMed 29691401.
# B1: "DNA (cytosine-5)-methyltransferase 1" (Homo sapiens), P26358 (parent)
# chain: MPARTAPARVPTLAVPAISLPDDVRRRLKDLERDSLTEKECVKEKLNLLHEFLQTEIKNQLCDLETKLRKEELSEEGYLAKVKSLLNKDLSLENGAHAYNREVNGRLENGNQARSEARRVGMADANSPPKPLSKPRTPRRSKSDGEAKPEPSPSPRITRKSTRQTTITSHFAKGPAKRKPQEESERAKSDESIKEEDKDQDEKRRRVTSRERVARPLPAEEPERAKSGTRTEKEEERDEKEEKRLRSQTKEPTPKQKLKEEPDREARAGVQADEDEDGDEKDEKKHRSQPKDLAAKRRPEEKEPEKVNPQISDEKDEDEKEEKRRKTTPKEPTEKKMARAKTVMNSKTHPPKCIQCGQYLDDPDLKYGQHPPDAVDEPQMLTNEKLSIFDANESGFESYEALPQHKLTCFSVYCKHGHLCPIDTGLIEKNIELFFSGSAKPIYDDDPSLEGGVNGKNLGPINEWWITGFDGGEKALIGFSTSFAEYILMDPSPEYAPIFGLMQEKIYISKIVVEFLQSNSDSTYEDLINKIETTVPPSGLNLNRFTEDSLLRHAQFVVEQVESYDEAGDSDEQPIFLTPCMRDLIKLAGVTLGQRRAQARRQTIRHSTREKDRGPTKATTTKLVYQIFDTFFAEQIEKDDREDKENAFKRRRCGVCEVCQQPECGKCKACKDMVKFGGSGRSKQACQERRCPNMAMKEADDDEEVDDNIPEMPSPKKMHQGKKKKQNKNRISWVGEAVKTDGKKSYYKKVCIDAETLEVGDCVSVIPDDSSKPLYLARVTALWEDSSNGQMFHAHWFCAGTDTVLGATSDPLELFLVDECEDMQLSYIHSKVKVIYKAPSENWAMEGGMDPESLLEGDDGKTYFYQLWYDQDYARFESPPKTQPTEDNKFKFCVSCARLAEMRQKEIPRVLEQLEDLDSRVLYYSATKNGILYRVGDGVYLPPEAFTFNIKLSSPVKRPRKEPVDEDLYPEHYRKYSDYIKGSNLDAPEPYRIGRIKEIFCPKKSNGRPNETDIKIRVNKFYRPENTHKSTPASYHADINLLYWSDEEAVVDFKAVQGRCTVEYGEDLPECVQVYSMGGPNRFYFLEAYNAKSKSFEDPPNHARSPGNKGKGKGKGKGKPKSQACEPSEPEIEIKLPKLRTLDVFSGCGGLSEGFHQAGISDTLWAIEMWDPAAQAFRLNNPGSTVFTEDCNILLKLVMAGETTNSRGQRLPQKGDVEMLCGGPPCQGFSGMNRFNSRTYSKFKNSLVVSFLSYCDYYRPRFFLLENVRNFVSFKRSMVLKLTLRCLVRMGYQCTFGVLQAGQYGVAQTRRRAIILAAAPGEKLPLFPEPLHVFAPRACQLSVVVDDKKFVSNITRLSSGPFRTITVRDTMSDLPEVRNGASALEISYNGEPQSWFQRQLRGAQYQPILRDHICKDMSALVAARMRHIPLAPGSDWRDLPNIEVRLSDGTMARKLRYTHHDRKNGRSSSGALRGVCSCVEAGKACDPAARQFNTLIPWCLPHTGNRHNHWAGLYGRLEWDGFFSTTVTNPEPMGKQGRVLHPEQHRVVSVRECARSQGFPDTYRLFGNILDKHRQVGNAVPPPLAKAIGLEIKLCMLAKARESASAKIKEEEAAKD
# partner: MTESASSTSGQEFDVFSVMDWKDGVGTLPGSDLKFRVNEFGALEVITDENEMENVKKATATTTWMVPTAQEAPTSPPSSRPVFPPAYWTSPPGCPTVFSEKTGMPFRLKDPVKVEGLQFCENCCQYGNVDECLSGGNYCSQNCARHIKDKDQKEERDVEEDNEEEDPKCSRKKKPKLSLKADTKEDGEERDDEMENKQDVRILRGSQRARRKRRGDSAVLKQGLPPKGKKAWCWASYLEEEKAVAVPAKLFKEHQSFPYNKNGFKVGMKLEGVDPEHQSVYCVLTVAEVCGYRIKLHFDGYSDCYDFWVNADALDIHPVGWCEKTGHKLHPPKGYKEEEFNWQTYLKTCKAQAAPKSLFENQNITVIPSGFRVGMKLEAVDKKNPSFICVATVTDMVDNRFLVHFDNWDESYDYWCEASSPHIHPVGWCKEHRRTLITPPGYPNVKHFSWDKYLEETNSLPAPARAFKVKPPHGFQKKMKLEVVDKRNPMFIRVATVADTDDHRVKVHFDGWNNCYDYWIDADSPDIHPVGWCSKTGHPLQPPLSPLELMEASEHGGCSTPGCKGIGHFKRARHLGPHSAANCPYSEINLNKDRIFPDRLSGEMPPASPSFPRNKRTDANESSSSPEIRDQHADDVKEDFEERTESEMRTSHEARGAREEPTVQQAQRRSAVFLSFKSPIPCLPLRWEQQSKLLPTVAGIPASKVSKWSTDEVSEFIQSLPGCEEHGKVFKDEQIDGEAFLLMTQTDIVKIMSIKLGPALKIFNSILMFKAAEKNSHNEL
# B2: "DNA (cytosine-5)-methyltransferase 1" (Homo sapiens), P26358 (parent)
# chain: B1 chain
# Variants of: B1
# Conditions: with lmbl3_human L3MBTL3, Q96JM7
row,Variant,effect of a mutation on the interaction
1,K142A,disrupting interaction strength

# Variants of: B2
# Conditions: with dcaf5_human DCAF5, Q96JK2
row,Variant,effect of a mutation on the interaction
1,K142A,disrupting interaction strength
